Experimental findings from patent US5646128A, “Methods for treating adenosine kinase related conditions” (priority 1994, dated 1997) are described below.

Protein sequences, listed by entry. Tags and fused reporters are not part of them. Residues count along the entry.
UniProt A0A5G2R0F5, 1-362: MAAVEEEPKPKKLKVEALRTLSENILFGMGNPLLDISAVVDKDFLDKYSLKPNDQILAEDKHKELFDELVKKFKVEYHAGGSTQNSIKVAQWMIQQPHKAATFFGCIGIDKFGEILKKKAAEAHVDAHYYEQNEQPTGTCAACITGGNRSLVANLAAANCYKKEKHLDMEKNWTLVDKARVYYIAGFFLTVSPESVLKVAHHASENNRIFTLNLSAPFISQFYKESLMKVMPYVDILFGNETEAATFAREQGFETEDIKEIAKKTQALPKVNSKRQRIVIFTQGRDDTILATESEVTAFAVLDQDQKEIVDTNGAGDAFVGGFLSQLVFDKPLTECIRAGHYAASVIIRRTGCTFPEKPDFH
UniProt A0AAA9RZ79, 1-362: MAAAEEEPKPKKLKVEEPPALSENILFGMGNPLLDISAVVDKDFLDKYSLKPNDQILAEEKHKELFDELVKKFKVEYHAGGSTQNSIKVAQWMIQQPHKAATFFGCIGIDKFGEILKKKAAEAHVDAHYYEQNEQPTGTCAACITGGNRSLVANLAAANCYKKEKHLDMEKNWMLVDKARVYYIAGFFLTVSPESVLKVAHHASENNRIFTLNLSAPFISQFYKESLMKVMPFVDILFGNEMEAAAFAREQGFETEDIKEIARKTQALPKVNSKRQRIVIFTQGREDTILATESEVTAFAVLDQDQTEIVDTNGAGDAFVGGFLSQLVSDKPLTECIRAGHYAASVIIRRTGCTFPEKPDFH

Assay [1] deals with T1, purified pig heart adenosine kinase (Sus scrofa, UniProt A0A5G2R0F5).
T1 construct: purified pig heart adenosine kinase; from tissue; host or cells: pig heart
The experiment in a line: Inhibition of adenosine kinase activity (purified pig heart enzyme). Format: biochemical. Here is the method: Inhibition of enzyme activity was determined using a 0.1 mL assay mixture containing 50 mM Tris-maleate, pH 7.0, 0.1% (w/v) BSA, 1 mM ATP, 1 mM MgCl2, 0.5 μM [U-^14 C]adenosine (500 mCi/mmol) and 0.1 μg of purified pig heart adenosine kinase. Different concentrations of the test compounds were incubated in the assay mixture for 20 min. at 37° C. From each reaction mixture, 20 μl portions were removed and spotted on 2 cm^2 pieces of Whatman DE81 filter paper. […] The papers were dried, and [^14 C]AMP measured by scintillation counting.

The target of another assay is T2, adenosine kinase (Bos taurus, UniProt A0AAA9RZ79).
T2 construct: endogenous in cells; host or cells: capillary endothelial cells from bovine heart
As to the kind of experiment: Adenosine kinase inhibition in intact cells (capillary endothelial cells from bovine heart). Format: cell-based. The following applies: 20 μM 2'-deoxycoformycin, 5 μM [3H]adenosine. On the procedure: Inhibition of adenosine kinase in intact cells was determined from the amount of incorporation of radioisotope from adenosine into the adenylates (AMP, ADP and ATP) in the presence of adenosine deaminase inhibition. […] The media was then discarded and the cells were treated with 50 μl 0.4M perchloric acid, centrifuged and the supernalants neutralized with 100 μl alanine: freon (1:4).

As usually defined, the IC50 is the point on the concentration scale where inhibition reaches its midpoint. High values mean weaker potency, low ones greater potency.

Consider `C[C@H]1O[C@@H](n2cc(-c3ccccc3)c3c(Nc4ccccc4)ncnc32)[C@H](O)[C@@H]1O` [GP-1-683, 7-(5-Deoxy-1-β-D-ribofuranosyl)-5-phenyl-4-phenylaminopyrrolo[2,3-d]pyrimidine], for which the half-inhibitory concentration (IC50) in assay [1] was less than 10 nM; on adenosine kinase it was 73 nM.
